Data from patent US9062123B2, “Labelled adrenomedullin derivatives and their use for imaging and therapy” (PLUMOSCIENCE INC., priority 2004, dated 2015).

Tests used:
[1] = In vivo single-pass pulmonary extraction of 125I-rAM(1-50) in dogs (indicator-dilution); set-up: species or system dog; conditions: intravenous bolus of 100 nmol, 5 min before
Procedure: Dogs were anaesthetized and prepared as described in detail in reference, which is hereby incorporated by reference. A catheter was inserted into the carotid artery and positioned just above the aortic valve. This catheter was connected to a peristaltic pump for automated blood withdrawal. Another catheter was placed into the jugular vein and positioned in the right ventricular outflow tract to allow bolus injection of the study tracers. A bolus was prepared by adding 3.3 μCi of 125I-rAM(1-50) (2.9 pmol) to 3 ml of Evans-Blue-dye labelled albumin and 0.9% saline to give a final volume of 6 ml. The mixture was separated into three equal parts for the two successive experiments in each animal and to realize dilution-curve standards. A baseline single-bolus indicator-dilution experiment was performed. After 5 min, CGRP (n=7), hAM(22-52) (n=8) and unlabelled rAM(1-50) (n=9) were administered as an intravenous bolus of 100 nmol and 5 min later a second indicatordilution experiment was performed.
The collected samples were processed and indicator-dilution curves constructed and analyzed as described in previously cited reference 13. Cardiac output and mean tracer AM extraction during the pulmonary transit time were computed from the curves. […]

[2] = Biodistribution / organ retention of 125I-rAM(1-50) in rats, with and without antagonists; assay type: in vivo, rat
Procedure: The animals were then killed and the lungs, liver, kidneys (en bloc with the adrenal glands) and heart were removed and gravity drained. […] Results are expressed as a percentage of total radioactivity injected.
Three groups of rats (n=20 in each) were studied and received either 200 μl of hAM(22-52) (5.6 nmol; Bachem), 100 μl of CGRP (1.75 nmol; Phoenix Pharmaceuticals) or 100 μl of unlabelled rAM(1-50) (17.5 nmol; American Peptide). The drugs were given by either intraarterial (n=10 in each group) or intravenous (n=10 in each group) injection 5 min before the ^125I-rAM(1-50) bolus. Plasma samples and tissues were treated as described above.

[3] = Plasma kinetics of 125I-rAM(1-50) after single intravenous injection in rats; assay type: in vivo, rat; conditions: given 5 min before the 125I-rAM(1-50) bolus
Procedure: All experimental procedures were performed in accordance with the regulations and ethical guidelines from Canadian Council for the Care of Laboratory Animals, and received approval by the Animal Ethics and Research Committee of the Montreal Heart Institute. Male Sprague-Dawley rats (Charles River), weighing between 400-450 g, were anaesthetized by an initial intramuscular dose of xylazine (10 mg/kg of body weight) and ketamine (50 mg/kg of body weight), followed by an intra-peritoneal injection of heparin (2000 units; Sigma). Catheters were inserted into the right carotid artery and jugular vein. Heart rate and systemic blood pressure were monitored continuously. […] Venous and arterial blood samples (3 ml) were collected and centrifuged (1875 g, 15 min, 4° C.) and the plasma saved for subsequent measurement of irAM (immunoreactive AM). A similar amount of saline was infused into the animals to prevent hypovolaemia.
The animals were then killed and the lungs, liver, kidneys (en bloc with the adrenal glands) and heart were removed and gravity drained. […] Results are expressed as a percentage of total radioactivity injected. […]
Multiple group comparisons were performed by factorial ANOVA, followed, when a significant interaction was found, by the Bonferroni/Dunn t test. […] In the canine experiments, the effect of drugs on AM extraction was analyzed by two-tailed paired Student's t tests. […]

[4] = target: AM1 (CRLR+RAMP2) receptor, lungs of dogs; test: Displacement of labelled human adrenomedullin in the lungs of dogs; assay type: binding, dog; conditions: displacement of labelled hAM
Description: These concentrations, denoted by IC-50, are shown in Table 1 for various adrenomedullin fragments and linear and cyclic adrenomedullin peptides.

Substance | single-pass pulmonary extraction of 125I-rAM(1-50) after administration of the substance [1] [%] | effect on biodistribution of 125I-rAM(1-50) ([2]; given before the tracer) | effect on pulmonary first-pass retention of 125I-rAM(1-50) ([2]; prior administration) | effect on plasma kinetics of radiolabelled rAM(1-50) [3] | IC50 [4] [nM]
calcitonin gene-related peptide (ACDTATCVTHRLAGLLSRSGGVVKNNFVPTNVGSKAF; Calcitonin gene-related peptide 1; UniProt P06881 83-119, looked up) [CGRP, calcitonin gene-related peptide (Phoenix Pharmaceuticals)] | 40.6±2.9 | did not significantly modify this distribution | not affected | did not modify plasma kinetics | 
hCGRP: human calcitonin gene-related peptide |  |  |  |  | 440
